Results: PubChem BioAssay AID504847 (National Center for Advancing Translational Sciences (NCATS), 2011)
This is a selection; strong and weak results do not stand in their true shares. Results filed as inconclusive are left out. Calls of active or inactive are those of the source. Calls come from the whole dose curve; as a rule, active = well fitted inhibition curve with a large enough effect; inconclusive = small, poorly fitted or top-dose-only effect, or another doubt; inactive = no such curve, though single readings can be large or run the other way.

Chains of the proteins cited; added tags and fusions are not shown. Lines headed by an entry give the natural chain unless they say otherwise; changes in a name come on top.
UniProt P11473: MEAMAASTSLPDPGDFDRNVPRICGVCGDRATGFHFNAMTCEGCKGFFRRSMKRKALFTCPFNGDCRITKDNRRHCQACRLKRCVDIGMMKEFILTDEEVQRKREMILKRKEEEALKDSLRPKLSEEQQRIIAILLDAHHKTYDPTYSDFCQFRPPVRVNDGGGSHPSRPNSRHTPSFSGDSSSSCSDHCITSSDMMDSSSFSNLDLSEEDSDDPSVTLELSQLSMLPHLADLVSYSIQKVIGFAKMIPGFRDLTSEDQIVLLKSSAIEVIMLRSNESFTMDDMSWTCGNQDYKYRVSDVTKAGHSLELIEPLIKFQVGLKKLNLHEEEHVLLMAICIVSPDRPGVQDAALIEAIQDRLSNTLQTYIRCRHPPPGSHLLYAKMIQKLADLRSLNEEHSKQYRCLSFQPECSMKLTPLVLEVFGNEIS

molecular target: Vitamin D3 receptor (Homo sapiens) (UniProt P11473); experiment: Inhibitors of the vitamin D receptor (VDR): qHTS; details: VDR-SRC2-3 peptide fluorescence polarization, 2 h
Potency is the fitted concentration of half-maximal effect.

Structure (SMILES) | Potency
CC1(C)N([O-])c2cc([N+](=O)[O-])ccc2[N+]1=O | active: 50.1 µM
CCC(=O)O[C@H]1C(O[C@@H]2C(C)[C@H](O[C@H]3C[C@@](C)(OC)C(O)C(C)O3)C(C)C(=O)OC(CC)[C@@](C)(O)C(O)[C@H](C)C(=O)C(C)C[C@]2(C)O)OC(C)CC1N(C)C (some centres not stated) | active: 15.8 µM
